Values quoted from earlier work, collected in US20130005592A1, “METHODS AND COMPOSITIONS FOR PREDICTING CANCER THERAPY RESPONSE” (Board of Regents of the University of Texas System, priority 2009, published 2013).

Tested on: HER2-overexpressing patients

trastuzumab
patients who respond well (HER2-overexpressing patients): about 35% | patients showing severe side effects including heart problems (patients treated with trastuzumab): roughly 5%
